{"source": "patent US20200071357A1", "about": "“ANTIMICROBIAL PEPTIDES” (UNIVERSITETET I TROMSØ - NORGES ARKTISKE UNIVERSITET, priority 2016, published 2020)", "system": "human red blood cells", "assay": "Haemolytic assay", "format": "cell-based", "details": "at concentrations as low as 6.3 μM", "experimental": "Selected synthesised peptide analogues were also screened for haemolytic activity using human red blood cells as described previously (Sperstad, S. V., et al. (2009) Dev. Comp. Immunol. 33, 583-591). The assay was performed on 96-well U-shaped microtiter plates (Nagle Nunc) with 50 μl peptide sample, 40 μl phosphate-buffered saline (PBS) and 10 μl red blood cells. After one hour of incubation at 37° C. in a shaker, the plate was centrifuged at 200 g for 5 min and the supernatants (60 μl) were carefully transferred to a new flat-bottomed polycarbonate microtiter plate (Nagle Nunc) and the release of haemoglobin (absorbance at 550 nm) was measured on a Synergy H1 multimode reader (BioTek, Vt., USA). Cell suspension added 0.05% Triton X-100 (Sigma-Aldrich, Mo., USA) in PBS served as positive (100% haemolysis) control and cell suspension added PBS served as negative (0% haemolysis, blank) control. The percent haemolysis was calculated using the formula [(Asample-Abaseline)/(Atriton-Abaseline)]×100. The cytotoxic peptide melittin (Sigma-Aldrich) was used as a positive control peptide and for comparison. The experiment was performed in triplicates with peptide concentrations ranging from 200 μM to 1.56 μM in two-fold dilutions."}
{"molecule": "CC[C@H](C)[C@H](NC(=O)CN)C(=O)NCC(=O)N[C@@H](C)C(=O)N[C@H](C(=O)N[C@@H](CC(C)C)C(=O)N[C@@H](CCCCN)C(=O)N[C@H](C(=O)N[C@@H](CC(C)C)C(=O)N[C@H](C(=O)N[C@H](C(=O)NCC(=O)N[C@@H](CC(C)C)C(=O)N1CCC[C@H]1C(=O)N[C@@H](C)C(=O)N[C@@H](CC(C)C)C(=O)N[C@H](C(=O)N[C@@H](CO)C(=O)N[C@@H](Cc1c[nH]c2ccccc12)C(=O)N[C@H](C(=O)N[C@@H](CCCCN)C(=O)N[C@@H](CCCNC(=N)N)C(=O)N[C@@H](CCCCN)C(=O)N[C@@H](CCCNC(=N)N)C(=O)N[C@@H](CCC(N)=O)C(=O)N[C@@H](CCC(N)=O)C(N)=O)[C@@H](C)CC)[C@@H](C)CC)[C@@H](C)O)[C@@H](C)O)C(C)C)C(C)C", "note": "[melittin, reference compound]", "values": [{"measurement": "haemolysis", "value": 100, "unit": "%"}]}
